Structures are written as SMILES.

This assay concerns the target T1, Endothelin receptor type B (Bos taurus, UniProt P28088).
T1 sequence (P28088 whole entry): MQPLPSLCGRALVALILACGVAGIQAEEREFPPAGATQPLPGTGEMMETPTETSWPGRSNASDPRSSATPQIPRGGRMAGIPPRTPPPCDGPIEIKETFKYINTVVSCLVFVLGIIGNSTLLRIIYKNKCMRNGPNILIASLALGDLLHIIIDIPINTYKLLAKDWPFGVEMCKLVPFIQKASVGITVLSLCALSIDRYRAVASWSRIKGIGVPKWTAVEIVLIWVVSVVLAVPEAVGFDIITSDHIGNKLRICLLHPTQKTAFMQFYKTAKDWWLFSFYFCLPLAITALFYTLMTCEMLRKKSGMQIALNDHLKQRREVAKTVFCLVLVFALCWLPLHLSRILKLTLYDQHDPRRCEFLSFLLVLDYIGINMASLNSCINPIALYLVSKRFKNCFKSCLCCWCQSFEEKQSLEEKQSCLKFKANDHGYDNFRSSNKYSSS
In words: Binding activity to ET-B receptor on bovine cerebellum membrane. Type of assay: tissue-based.
In turn, `CC[C@H](C)[C@H](NC(=O)[C@H](CC(=O)O)NC(=O)[C@H](CC(C)C)NC(=O)[C@H](Cc1c[nH]cn1)NC(=O)[C@H](C)NC(=O)[C@H](Cc1ccccc1)NC(=O)[C@H](Cc1ccc(O)cc1)NC(=O)[C@@H](NC(=O)[C@H](Cc1c[nH]c2ccccc12)NC(=O)[C@@H]1CC(=O)NCC(=O)N[C@@H](CC(N)=O)C(=O)N[C@@H](Cc2c[nH]c3ccccc23)C(=O)N[C@@H](Cc2c[nH]cn2)C(=O)NCC(=O)N[C@@H]([C@@H](C)O)C(=O)N[C@@H](C)C(=O)N2CCC[C@H]2C(=O)N1)C(C)C)C(=O)N[C@H](C(=O)N[C@@H](Cc1c[nH]c2ccccc12)C(=O)O)[C@@H](C)CC` showed a half-maximal inhibitory concentration (IC50) of 0.24 nM.

The molecule `CC[C@H](C)[C@H](NC(=O)[C@@H](NC(=O)[C@H](CC(=O)O)NC(=O)[C@H](CCC(N)=O)NC(=O)[C@H](Cc1c[nH]cn1)NC(=O)[C@H](C)NC(=O)[C@H](Cc1ccccc1)NC(=O)[C@H](Cc1ccc(O)cc1)NC(=O)[C@H](CC(C)C)NC(=O)[C@H](Cc1c[nH]c2ccccc12)NC(=O)[C@@H]1CC(=O)NCC(=O)N[C@@H](CC(N)=O)C(=O)N[C@@H](Cc2c[nH]c3ccccc23)C(=O)N[C@@H](Cc2c[nH]cn2)C(=O)NCC(=O)N[C@@H]([C@@H](C)O)C(=O)N[C@@H](C)C(=O)N2CCC[C@H]2C(=O)N1)C(C)C)C(=O)N[C@@H](Cc1c[nH]c2ccccc12)C(=O)O` had an IC50 of 3.8 nM.

`CC[C@H](C)[C@H](NC(=O)[C@H](CC(=O)O)NC(=O)[C@H](CC(C)C)NC(=O)[C@H](Cc1c[nH]cn1)NC(=O)[C@H](C)NC(=O)[C@H](Cc1ccc(O)cc1)NC(=O)[C@H](Cc1ccc(O)cc1)NC(=O)[C@@H](NC(=O)[C@H](Cc1c[nH]c2ccccc12)NC(=O)[C@@H]1CC(=O)NCC(=O)N[C@@H](CC(N)=O)C(=O)N[C@@H](Cc2c[nH]c3ccccc23)C(=O)N[C@@H](Cc2c[nH]cn2)C(=O)NCC(=O)N[C@@H]([C@@H](C)O)C(=O)N[C@@H](C)C(=O)N2CCC[C@H]2C(=O)N1)C(C)C)C(=O)N[C@H](C(=O)N[C@@H](Cc1c[nH]c2ccccc12)C(=O)O)[C@@H](C)CC` displayed an IC50 of 2.5 nM.

(Values after ChEMBL document CHEMBL1130471, “RES-701-1/endothelin-1 hybrid peptide having a potent binding activity for type B receptor” (Bioorg Med Chem Lett, 1997).)
